Laboratory results from patent publication US10988449B2, “Isoxazole derivatives as nuclear receptor agonists and uses thereof” (IL DONG PHARMACEUTICAL CO., LTD., priority 2017, dated 2021).

The chains behind the UniProt entries cited, without tags or fusion partners.
UniProt Q96RI1, whole entry: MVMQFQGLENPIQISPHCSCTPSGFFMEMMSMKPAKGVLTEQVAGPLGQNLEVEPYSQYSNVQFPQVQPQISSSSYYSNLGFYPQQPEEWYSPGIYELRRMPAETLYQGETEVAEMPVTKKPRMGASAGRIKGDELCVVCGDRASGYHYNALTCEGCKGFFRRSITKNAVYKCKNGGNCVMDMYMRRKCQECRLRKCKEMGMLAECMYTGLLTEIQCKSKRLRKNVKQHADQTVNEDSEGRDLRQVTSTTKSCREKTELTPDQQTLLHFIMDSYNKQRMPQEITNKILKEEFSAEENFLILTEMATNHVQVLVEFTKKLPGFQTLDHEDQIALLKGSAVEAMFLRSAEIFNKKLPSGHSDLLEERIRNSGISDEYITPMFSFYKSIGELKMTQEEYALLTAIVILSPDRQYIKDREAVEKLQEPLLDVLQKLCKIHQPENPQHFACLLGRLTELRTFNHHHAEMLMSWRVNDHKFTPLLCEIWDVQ

Columns and labels:
human FXR = human FXR (Homo sapiens, UniProt Q96RI1); test: FXR reporter assay (cellular FXR activities); format: cell-based
Mouse pharmacokinetics = test: Mouse pharmacokinetics; design: concentration or dose not given beside the values; settings: Balb/c male mice; blood samples 15 to 1140 min; LC-MS/MS

O=C(O)c1ccc(C2CC2c2ccc(OCc3c(-c4c(Cl)cccc4Cl)noc3C3CC3)cc2Cl)cc1 (stereo not drawn)
EC50 (human FXR; read-out: Reporter Cell EC50, FXR reporter cells, 24 hours incubation, luciferase): 200 to 1000 nM
Emax (%) (GW4064 Emax = 100%) (human FXR; relative to GW4064 Emax = 100%): 90%
AUC (Mouse pharmacokinetics): 352.09 ng·h/mL
